# Measured values: patent publication US10577368B2 (The United States of America, as represented by the …, priority 2013, dated 2020)
# By UniProt entry, the sequences of proteins in these tests, tags left out.
# UniProt Q01959, whole entry: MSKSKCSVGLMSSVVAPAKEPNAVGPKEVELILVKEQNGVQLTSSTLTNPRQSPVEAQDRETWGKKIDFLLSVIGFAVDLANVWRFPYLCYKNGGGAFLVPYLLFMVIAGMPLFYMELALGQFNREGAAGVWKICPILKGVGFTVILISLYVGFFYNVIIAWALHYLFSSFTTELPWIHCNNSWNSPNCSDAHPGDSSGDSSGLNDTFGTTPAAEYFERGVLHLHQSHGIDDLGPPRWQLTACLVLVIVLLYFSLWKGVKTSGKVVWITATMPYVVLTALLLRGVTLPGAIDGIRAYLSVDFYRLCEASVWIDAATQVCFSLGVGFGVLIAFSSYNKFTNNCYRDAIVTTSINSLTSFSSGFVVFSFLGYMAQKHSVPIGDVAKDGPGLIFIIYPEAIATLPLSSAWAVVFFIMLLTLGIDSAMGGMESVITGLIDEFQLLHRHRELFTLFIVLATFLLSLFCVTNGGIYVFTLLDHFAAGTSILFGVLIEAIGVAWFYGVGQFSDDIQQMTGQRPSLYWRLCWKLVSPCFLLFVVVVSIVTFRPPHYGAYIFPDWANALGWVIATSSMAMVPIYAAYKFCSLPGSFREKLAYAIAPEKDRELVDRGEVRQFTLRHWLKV
# Columns and labels:
# [1] = test system: chronic constriction injury model of neuropathic pain; test: CCI model of neuropathic pain, reversal of mechano-allodynia; format: in vivo; details: 3 μmol/kg p.o., mice; for Max. effect Emax (% ± SEM) / Time of peak protection: ipsilateral hind paw
# [2] = test system: muscarinic, adrenergic, dopamine, GABA, histamine, opiate, serotonin receptors and transporters; test: Off-target binding panel (receptors and transporters of Table 5); details: 10 μM
# [3] = target: human DAT (Homo sapiens (Human), UniProt Q01959); test: Radioligand ([3H]WIN35428) binding at the dopamine transporter; details: compound at 10 μM
Compound,Effect at 3 h (% ± SEM) [1],Max. effect Emax (% ± SEM) [1],Time of peak protection [1],Interactions at other receptors of the off-target panel [2],Enhancement of radioligand binding at the dopamine transporter [3]
CNC(=O)[C@@]12C[C@@H]1[C@@H](n1cnc3c(NC)nc(-n4cc(-c5ccc(Cl)s5)nn4)nc31)[C@H](O)[C@@H]2O,8 ± 7%,67 ± 19%,1 h,,
CCNc1nc(-n2cc(-c3ccc(Cl)s3)nn2)nc2c1ncn2C1C(O)C(O)C2(C(=O)NC)CC12 (centres unmarked),8 ± 8%,89 ± 11%,1 h,,
CNC(=O)[C@@]12C[C@@H]1[C@@H](n1cnc3c(NC)nc(C#Cc4ccc(F)c(F)c4)nc31)[C@H](O)[C@@H]2O,,,,No interactions at other receptors,7 ×
